The results in this text go back to US6869930B1, “Acylated insulin” (priority 1993, dated 2005).

A short description of the series: Lipophilicity relative to human insulin, k′rel, by isocratic RP-HPLC (LiChrosorb RP18). The class given is physicochemical. The settings on record: 40° C., pH 7.3. The protocol: The elution was monitored by following the UV absorption of the eluate at 214 nm. Void time, t0, was found by injecting 0.1 mM sodium nitrate.

Consider “Lys^B29(N^ε-[N^α-hexadecanoyl-Glu(−)-OH]) Human Insulin [Example 37]”, for which the “lipophilicity relative to human insulin, k′rel” value came out at 67.
